Assay: ORAC assay for lipophilic antioxidants (ORAClipo) with randomly methylated β-cyclodextrin as solubility enhancer
Format: biochemical
Conditions: 7% cyclodextrin in 50% acetone-water
From the text: Chemicals and Apparatus. Cyclodextrin derivatives were supplied from Cyclodextrin Technologies Development, Inc. (Gainesville, Fla.). Fluorescein (FL) and Trolox were purchased from Aldrich (Milwaukee, Wis.). 2,2′-azobis (2-amidino-propane) dihydrochloride (AAPH) was obtained from Wako Chemicals USA (Richmond, Va.). γ-Oryzanol was purchased from TCI America (Portland, Oreg.); nutriene (tocotrienols) was obtained from Eastman Chemicals Company (Kingsport, Tenn.). All other standards were commercially available form Sigma or Aldrich. Analyses were performed on a COBAS FARA II analyzer (Roche Diagnostic System Inc., Branchburg, N.J. using an excitation wavelength of 493 nm and an emission filter of 515 nm or alternatively, the sample may be analyzed with a FL600 microplate fluorescence reader (Bio-Tek Instruments, Inc., Winooski, Vt.) with fluorescence filters for an excitation wavelength of 485±20 nm and a emission wavelength of 530±25 nm. The plate reader is ideally controlled by software, such as KC4 3.0 (reversion 29). Sample dilution is accomplished by a Precision 2000 automatic pipetting system managed by software, such as precision power software (version 1.0), Bio-Tek Instruments, Inc., Winooski, Vt. […]
Sample Preparation. […] The sample solution was ready for analysis after further dilution with 7% cyclodextrin solution. […]

**Q.** For `Cc1c(C)c2c(c(C)c1O)CC[C@@](C)(CCC[C@H](C)CCC[C@H](C)CCCC(C)C)O2` [α-tocopherol], which “ORAC value per gram” value is on record?
**A.** 1162 μmolTE/g

From patent US7132296B2, “Method for assaying the antioxidant capacity of a sample” (Medical Products Manufacturing, LLC, priority 2002, dated 2006)
